Assay results published in PubChem BioAssay (Tox21).
Several values for one entry are separate records, joined by “and”; a condition that tells them apart may be missing. Equal entries are not always repeated. The entries are a selection whose mix differs from that of the whole data set. Records with an inconclusive call do not appear. The source holds several records for some structures; these can differ, active in one and inactive in another. Activity calls are given as the source filed them. Unless noted, calls follow the shape of the dose curve; as a rule, active = well fitted curve in the direction sought with a large enough effect in the repeat runs; inconclusive = weak or mixed curves; inactive = no such curve, though single readings can be large; an effect the other way counts as inactive or inconclusive.

Protein sequences, listed by entry. Tags and fused reporters are not part of them.
UniProt P11511, whole entry: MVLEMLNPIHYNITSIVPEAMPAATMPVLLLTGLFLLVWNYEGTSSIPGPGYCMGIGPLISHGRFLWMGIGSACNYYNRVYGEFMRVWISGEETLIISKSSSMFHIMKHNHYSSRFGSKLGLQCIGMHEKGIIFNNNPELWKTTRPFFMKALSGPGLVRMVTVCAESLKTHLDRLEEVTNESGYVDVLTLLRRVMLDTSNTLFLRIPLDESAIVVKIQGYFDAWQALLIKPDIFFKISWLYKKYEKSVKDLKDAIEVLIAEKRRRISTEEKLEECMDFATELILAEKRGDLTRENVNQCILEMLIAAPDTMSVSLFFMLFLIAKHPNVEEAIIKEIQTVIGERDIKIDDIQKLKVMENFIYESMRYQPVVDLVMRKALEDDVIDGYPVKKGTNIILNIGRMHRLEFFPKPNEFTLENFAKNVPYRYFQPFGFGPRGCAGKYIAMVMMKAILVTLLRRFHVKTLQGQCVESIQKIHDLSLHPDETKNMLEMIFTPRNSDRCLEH
UniProt P37231, whole entry: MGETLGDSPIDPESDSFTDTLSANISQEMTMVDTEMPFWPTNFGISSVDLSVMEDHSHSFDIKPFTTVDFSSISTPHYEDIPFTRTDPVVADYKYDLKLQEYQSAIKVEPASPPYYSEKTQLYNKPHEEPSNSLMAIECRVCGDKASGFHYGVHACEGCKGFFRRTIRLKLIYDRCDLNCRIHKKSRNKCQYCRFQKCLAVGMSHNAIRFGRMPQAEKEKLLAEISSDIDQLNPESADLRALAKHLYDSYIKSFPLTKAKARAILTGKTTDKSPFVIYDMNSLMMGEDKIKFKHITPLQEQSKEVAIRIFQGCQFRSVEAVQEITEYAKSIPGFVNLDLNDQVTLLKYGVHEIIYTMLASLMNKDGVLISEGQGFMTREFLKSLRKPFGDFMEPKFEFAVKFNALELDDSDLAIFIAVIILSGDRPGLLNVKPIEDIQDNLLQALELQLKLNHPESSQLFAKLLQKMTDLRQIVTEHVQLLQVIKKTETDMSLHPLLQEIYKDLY
UniProt Q03181, whole entry: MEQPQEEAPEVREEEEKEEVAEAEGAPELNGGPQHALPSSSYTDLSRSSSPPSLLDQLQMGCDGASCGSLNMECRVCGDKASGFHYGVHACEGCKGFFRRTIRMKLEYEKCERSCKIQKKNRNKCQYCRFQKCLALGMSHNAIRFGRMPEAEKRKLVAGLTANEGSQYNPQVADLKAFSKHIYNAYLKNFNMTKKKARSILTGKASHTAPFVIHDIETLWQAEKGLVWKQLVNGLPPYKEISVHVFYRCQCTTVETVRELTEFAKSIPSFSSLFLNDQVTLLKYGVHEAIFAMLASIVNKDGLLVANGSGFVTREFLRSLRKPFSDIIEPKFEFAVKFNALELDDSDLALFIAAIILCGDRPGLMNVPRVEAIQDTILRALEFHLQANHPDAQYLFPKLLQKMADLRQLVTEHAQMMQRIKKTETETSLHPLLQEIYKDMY
UniProt P35869, whole entry: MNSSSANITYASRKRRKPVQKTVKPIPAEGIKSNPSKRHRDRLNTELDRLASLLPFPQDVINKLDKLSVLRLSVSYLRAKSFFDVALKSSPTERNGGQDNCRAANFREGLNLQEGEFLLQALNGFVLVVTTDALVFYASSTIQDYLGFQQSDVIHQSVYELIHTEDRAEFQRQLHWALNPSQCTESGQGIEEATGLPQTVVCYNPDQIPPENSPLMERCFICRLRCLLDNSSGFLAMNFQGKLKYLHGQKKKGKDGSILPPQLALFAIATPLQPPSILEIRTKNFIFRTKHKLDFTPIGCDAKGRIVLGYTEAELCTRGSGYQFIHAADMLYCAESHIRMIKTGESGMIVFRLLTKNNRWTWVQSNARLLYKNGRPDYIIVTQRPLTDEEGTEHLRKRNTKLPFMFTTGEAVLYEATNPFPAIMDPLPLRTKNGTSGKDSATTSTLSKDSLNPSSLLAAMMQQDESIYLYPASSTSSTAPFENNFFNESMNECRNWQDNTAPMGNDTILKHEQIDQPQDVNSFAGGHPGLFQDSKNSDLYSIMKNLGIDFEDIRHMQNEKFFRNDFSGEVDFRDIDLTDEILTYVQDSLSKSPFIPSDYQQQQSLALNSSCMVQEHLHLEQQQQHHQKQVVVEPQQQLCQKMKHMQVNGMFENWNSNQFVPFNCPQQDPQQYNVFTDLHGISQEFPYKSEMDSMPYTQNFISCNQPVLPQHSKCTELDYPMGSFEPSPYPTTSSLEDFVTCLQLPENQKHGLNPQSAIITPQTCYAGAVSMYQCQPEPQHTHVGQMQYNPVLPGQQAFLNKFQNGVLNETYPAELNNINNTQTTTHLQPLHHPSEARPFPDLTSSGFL

How the values were obtained:
[1] = qHTS assay to identify small molecule antagonists of the estrogen receptor alpha (ER-alpha) signaling pathway using the BG1 cell line - cell viability counter screen (AID 743081); conditions: BG1Luc4E2 viability, CellTiter-Fluor, 22 h;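 also: compound given together with 17beta-estradiol as the ER stimulus; nearly all actives have a fitted effect of over 45% in size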
Aromatase (Homo sapiens) = Aromatase (Homo sapiens) (UniProt P11511); experiment: qHTS assay to identify aromatase inhibitors (AID 743083); conditions: MCF-7 aro ERE, testosterone-driven ERE luciferase, 24 h; series mostly up to 70.3 µM; also: nearly all actives have a fitted effect of over 55% in size; also: potency is read from the fitted curve at half-maximal effect
[2] = qHTS assay to identify aromatase inhibitors - cell viability counter screen (AID 743084); conditions: MCF-7 aro ERE viability, CellTiter-Fluor, 24 h; series mostly up to 70.3 µM;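 also: cells stimulated with testosterone during compound exposure; nearly all actives have a fitted effect of over 55% in size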; also: potency is read from the fitted curve at half-maximal effect
[3] = qHTS assay to identify small molecule that activate the aryl hydrocarbon receptor (AhR) signaling pathway - cell viability counter screen (AID 743086); conditions: HepG2-AhR-luc viability, CellTiter-Fluor, 24 h; series mostly up to 70.3 µM; also: nearly all actives have a fitted effect of over 45% in size; also: potency is read from the fitted curve at half-maximal effect;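 as to viability change, negative = cytotoxic: HepG2 liver cells carrying the AhR DRE luciferase reporter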
In short: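 Cytotoxicity counter screen: CellTiter-Fluor signal (30 min, 37 C) in 4000 HepG2 cells/well carrying the DRE-luciferase reporter, following 24 h compound exposure at 37 C.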

[4] = qHTS assay to identify small molecule antagonists of the peroxisome proliferator-activated receptor gamma (PPARg) signaling pathway - cell viability counter screen (AID 743194); conditions: PPARg-bla HEK293H viability, CellTiter-Glo luminescence, 17 h, co-treated with 50 nM rosiglitazone; also: nearly all actives have a fitted effect of over 55% in size
In short: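 Viability was measured as CellTiter-Glo luminescence in GeneBLAzer PPARg UAS-bla HEK293H cells. These cells had been exposed 17 h at 37 C to compounds together with rosiglitazone at 50 nM final, with the beta-lactamase readout taken in the same wells.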

[5] = qHTS assay for small molecule agonists of the antioxidant response element (ARE) signaling pathway (AID 743202; active = well fitted activation curve with a large enough effect in the signal ratio in the repeat runs, not every such curve was filed as active; the % refers to the signal ratio); conditions: HepG2 ARE-bla reporter, beta-lactamase FRET, 16 h; at 73.3 µM (top of the series)
In short: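 An ARE-responsive beta-lactamase gene stably integrated in HepG2 cells serves as reporter. After 5 h plating and 16 h compound incubation at 37 C, fluorescence of the B/G FRET substrate was measured.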

[6] = qHTS assay for small molecule agonists of the antioxidant response element (ARE) signaling pathway - cell viability counter screen (AID 743203; calls by dose curve; also: nearly all actives have a fitted effect of over 55% in size); conditions: ARE-bla HepG2 viability, CellTiter-Glo luminescence, 16 h; at 73.3 µM (top of the series)
In short: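 Compounds in DMSO were pinned onto ARE-bla HepG2 cells plated 5 hrs earlier at 2,000 cells/well. Sixteen hours later at 37C/5% CO2, CellTiter-Glo was added and luminescence measured after 30 min at room temperature.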

[7] = qHTS assay for small molecule activators of the heat shock response signaling pathway - cell viability counter screen (AID 743209); conditions: HSE-bla HeLa viability, CellTiter-Glo luminescence, 5 h; also: nearly all actives have a fitted effect of over 50% in size
In short: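 Counter screen for cytotoxicity in HeLa HSE-bla reporter cells. Treatment was 5 h at 37 C; viability was detected by luminescent ATP assay (CellTiter-Glo) in the same wells as the beta-lactamase read.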

[8] = qHTS assay to identify small molecule agonists of the peroxisome proliferator-activated receptor delta (PPARd) signaling pathway - cell viability counter screen (AID 743211); conditions: PPARd-bla HEK293H viability, CellTiter-Glo luminescence, 17 h; also: nearly all actives have a fitted effect of over 55% in size
In short: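 Multiplexed format: after the 2 h room-temperature LiveBLAzer B/G FRET step, CellTiter-Glo was added to the same wells. Luminescence after 30 min gave cell viability; compound exposure was 17 h at 37C.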

[9] = qHTS assay to identify small molecule antagonists of the peroxisome proliferator-activated receptor delta (PPARd) signaling pathway - cell viability counter screen (AID 743213); conditions: PPARd-bla HEK293H viability, CellTiter-Glo luminescence, 17 h; also: nearly all actives have a fitted effect of over 50% in size
In short: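 Luminescence from CellTiter-Glo, added after the bla read and incubated 30 min at room temperature, gives viability of HEK293H PPARd-bla cells exposed to compounds for 17 h at 37 C with 300 nM L165041.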

[10] = biological target: Peroxisome proliferator-activated receptor gamma (Homo sapiens) (UniProt P37231); experiment: qHTS assay to identify small molecule antagonists of the peroxisome proliferator-activated receptor gamma (PPARg) signaling pathway (AID 743191; calls by dose curve; also: nearly all actives have a fitted effect of over 30% in size); conditions: HEK293H PPARg-UAS-bla, beta-lactamase ratio, antagonist, 17 h; at 62.6 µM (top of the series) unless noted
In short: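 Beta-lactamase reporter under UAS control in HEK293H PPARg-bla cells; compound treatment 17 h at 37C. Read-out: fluorescence intensity after 1 h room-temperature incubation with LiveBLAzer B/G FRET substrate.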

[11] = qHTS assay for small molecule activators of the heat shock response signaling pathway (AID 743210; active = well fitted activation curve with a large enough effect in the signal ratio in the repeat runs, with a control signal flat, not every such curve was filed as active; the % refers to the signal ratio;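 also: HeLa cells with beta-lactamase reporter driven by heat shock elements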); conditions: HeLa HSE-bla reporter, beta-lactamase ratio, 5 h; at 62.6 µM (top of the series)
In short: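 In HSE-bla HeLa cells, 5 h compound incubation (37 C) precedes addition of LiveBLAzer B/G substrate; after 2.5 h at room temperature, fluorescence intensity indicates reporter induction.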

[12] = biological target: Peroxisome proliferator-activated receptor delta (Homo sapiens) (UniProt Q03181); experiment: qHTS assay to identify small molecule agonists of the peroxisome proliferator-activated receptor delta (PPARd) signaling pathway (AID 743212; calls by dose curve); conditions: HEK293H PPARd-UAS-bla, beta-lactamase FRET ratio, 17 h; at 62.6 µM (top of the series)
In short: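 HEK293H UAS-bla reporter cells, human PPARd system; compounds delivered in DMSO after 5 h plating, then at 37 C. Beta-lactamase FRET read, 2 h RT substrate step.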

[13] = biological target: Peroxisome proliferator-activated receptor delta (Homo sapiens) (UniProt Q03181); experiment: qHTS assay to identify small molecule antagonists of the peroxisome proliferator-activated receptor delta (PPARd) signaling pathway (AID 743215; active = well fitted inhibition curve with a large enough effect in the signal ratio in the repeat runs, not every such curve was filed as active; the % refers to the signal ratio;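 also: cells stimulated with agonist L165041 at 300 nM final during compound exposure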); conditions: HEK293H PPARd-UAS-bla, beta-lactamase FRET ratio, antagonist, 17 h; at 62 µM (top of the series)
In short: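 With L165041 present at 300 nM final, compounds were incubated 17 h at 37 C on PPARd UAS-bla HEK293H cells. A FRET-based beta-lactamase substrate was then applied for 2 h at room temperature and fluorescence intensity recorded.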

[14] = qHTS assay to identify small molecule antagonists of the estrogen receptor alpha (ER-alpha) signaling pathway - cell viability counter screen (AID 743074; calls by dose curve;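 also: HEK293 cells carrying ER-alpha-UAS-bla reporter stimulated with 17beta-estradiol; nearly all actives have a fitted effect of over 45% in size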); conditions: ERalpha-bla HEK293 viability, CellTiter-Glo luminescence, 18 h; series mostly up to 69.4 µM
[15] = qHTS assay to identify small molecule antagonists of the estrogen receptor alpha (ER-alpha) signaling pathway using the BG1 cell line (AID 743080; calls by dose curve;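 also: BG1 cells stimulated with 17beta-estradiol alongside compound; nearly all actives have a fitted effect of over 25% in size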); conditions: BG1Luc4E2 ERE-luciferase antagonist mode, luminescence; at 70.3 µM (top of the series)
In short: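 BG1Luc4E2, endogenous ER-alpha, 4xERE-luc; 5 d charcoal-stripped FBS, phenol red free; 24 h plating; cpd + 17beta-estradiol 21.5 h, 37 C/5% CO2; CellTiter-Fluor viability 30 min, then ONE-Glo luciferase 30 min RT.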

[16] = biological target: Aryl hydrocarbon receptor (Homo sapiens) (UniProt P35869); experiment: qHTS assay to identify small molecule that activate the aryl hydrocarbon receptor (AhR) signaling pathway (AID 743085); conditions: HepG2 AhR-luc (HG2L7.5c1), luciferase, 24 h; at 70.3 µM (top of the series);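 also: HG2L7.5c1 human HepG2 liver cells with stably integrated DRE-driven firefly reporter; nearly all actives have a fitted effect of over 15% in size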
[17] = biological target: Peroxisome proliferator-activated receptor gamma (Homo sapiens) (UniProt P37231); experiment: qHTS assay to identify small molecule agonists of the peroxisome proliferator-activated receptor gamma (PPARg) signaling pathway (AID 743094; active = well fitted activation curve with a large enough effect in the signal ratio in the repeat runs, not every such curve was filed as active; the % refers to the signal ratio); conditions: HEK293H PPARg-UAS-bla, beta-lactamase FRET ratio, 17 h; at 57 µM (top of the series)
In short: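 Following 5 h plating at 37C, PPARg-bla HEK293H cells receive compound or DMSO for 17 h; fluorescence intensity is recorded after LiveBLAzer B/G loading for 1 h at room temperature.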
% is scaled to controls: 0 for no effect and ±100 for the full control effect.

Q: Which activity change, negative = cytotoxicity ([1]; at 70.3 µM (top of the series)) does the source give for `CCOP(=S)(Cl)OCC` here?
A: inactive: -2.25%

Q: And the Potency (Aromatase (Homo sapiens))?
A: active: 67.6 µM

Q: And the Potency [2]?
A: active: 60.3 µM

Q: What about the Potency [3] of the same compound?
A: inactive

Q: What about the activity change, negative = cytotoxicity ([4]; at 62.6 µM (top of the series)) of the same compound?
A: inactive: -16.3%

Q: What about the activation [5] of the same compound?
A: inactive: -1.05%

Q: What about the viability change, negative = cytotoxic [6] of the same compound?
A: inactive: -12.8%

Q: And the activity change, negative = cytotoxicity ([7]; at 62.6 µM (top of the series))?
A: inactive: 1.07%

Q: What about the activity change, negative = cytotoxicity ([8]; at 62.6 µM (top of the series)) of the same compound?
A: inactive: -0.531%

Q: What about the viability change, negative = cytotoxic ([9]; at 62 µM (top of the series)) of the same compound?
A: inactive: -5.75%

Q: For `CCC(=O)N(c1ccccc1)C1CCNCC1`, which ratio activity, negative = inhibition [10] is on record?
A: inactive: -16%

Q: What about the activity change, negative = cytotoxicity ([4]; at 62.6 µM (top of the series)) of the same compound?
A: inactive: 2.59%

Q: What about the activation [5] of the same compound?
A: inactive: -13.8%

Q: What about the viability change, negative = cytotoxic [6] of the same compound?
A: inactive: -2.49%

Q: And the activity change, negative = cytotoxicity ([7]; at 62.6 µM (top of the series))?
A: inactive: -16.1%

Q: And the activation [11]?
A: inactive: -1.66%

Q: What about the activity change, negative = cytotoxicity ([8]; at 62.6 µM (top of the series)) of the same compound?
A: inactive: -2.17%

Q: And the activation [12]?
A: inactive: 0.525%

Q: And the viability change, negative = cytotoxic ([9]; at 62 µM (top of the series))?
A: inactive: -26.4%

Q: And the ratio activity, negative = inhibition [13]?
A: inactive: -15.1%

Q: What does the source list for `CCOP(=O)(Cl)Cl`?
A: Potency [14]: inactive; activity change, negative = inhibition [15]: inactive: -7.22% and inactive: 4.98%; activity change, negative = cytotoxicity ([1]; at 70.3 µM (top of the series)): inactive: 2.57% and inactive: 0.94%; Potency (Aromatase (Homo sapiens)): inactive; Potency [2]: inactive; activation [16]: inactive: -0.998% and inactive: 2.15%; Potency [3]: inactive; activation [17]: inactive: 2.34% and inactive: -1.11%; ratio activity, negative = inhibition [10]: inactive: -10.7% and inactive: 6.4%; activity change, negative = cytotoxicity ([4]; at 62.6 µM (top of the series)): inactive: 1.44%; viability change, negative = cytotoxic [6]: inactive: 0.0229% and inactive: 0.605%; activity change, negative = cytotoxicity ([7]; at 62.6 µM (top of the series)): inactive: -6.2% and inactive: 3.68%; activity change, negative = cytotoxicity ([8]; at 62.6 µM (top of the series)): inactive: 7.37% and inactive: -20.6%; activation [12]: inactive: -1.04% and inactive: -1.5%; viability change, negative = cytotoxic ([9]; at 62 µM (top of the series)): inactive: -2.26% and inactive: 0.0576%; ratio activity, negative = inhibition [13]: inactive: -2.47% and inactive: 10.8%

Q: With `O=[N+]([O-])c1ccccc1[N+](=O)[O-]` as the compound, how does the Potency [14] read?
A: inactive

Q: And the activity change, negative = cytotoxicity ([1]; at 70.3 µM (top of the series))?
A: inactive: -1.52%

Q: And the activity change, negative = cytotoxicity ([1]; at 95 µM (top of the series))?
A: inactive: -26.6%

Q: And the Potency (Aromatase (Homo sapiens))?
A: active: 70.3 µM and inactive

Q: And the Potency [2]?
A: inactive

Q: And the Potency [3]?
A: active: 62.7 µM and inactive

Q: And the activity change, negative = cytotoxicity ([4]; at 62.6 µM (top of the series))?
A: inactive: -25.4%

Q: And the activity change, negative = cytotoxicity ([4]; at 81.1 µM (top of the series))?
A: inactive: -4.21%

Q: And the activity change, negative = cytotoxicity ([7]; at 62.6 µM (top of the series))?
A: inactive: 5%

Q: And the activity change, negative = cytotoxicity ([7]; at 81.1 µM (top of the series))?
A: inactive: -2.26%

Q: What about the activation [11] of the same compound?
A: inactive: 2.43%

Q: And the activity change, negative = cytotoxicity ([8]; at 62.6 µM (top of the series))?
A: inactive: -1.56%

Q: What about the activity change, negative = cytotoxicity ([8]; at 81.1 µM (top of the series)) of the same compound?
A: inactive: -5.57%

Q: And the viability change, negative = cytotoxic ([9]; at 62 µM (top of the series))?
A: inactive: 5.13%

Q: What about the viability change, negative = cytotoxic ([9]; at 80.4 µM (top of the series)) of the same compound?
A: inactive: -18.7%
